Source: PubChem BioAssay (Broad Institute)
The list is not random: actives were taken first. Their share in the collection is about 1.5%.
PglD DTNB: blocks C. jejuni PglD acetyltransferase activity; purified PglD enzyme, DTNB colorimetric CoA detection; inhibition, % at 12.5 µM; 360,000 compounds, 0.098% hits; in the data active = inhibition above about 16%, passing the limit was not always enough
Casp6 inh: caspase-6 (human) enzyme inhibition. P55212. purified caspase-6, Z-VEID-R110 cleavage fluorescence. inhibition, % at 12.5 µM. 350,000 compounds, 0.53% hits;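 active = mean inhibition across replicates at least about 35%, with every replicate also reaching that limit, limit read from the data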
Yeast UUG start: alters start codon recognition fidelity in yeast. S. cerevisiae UUG-firefly luciferase reporter, luminescence/redox ratio. activity score, % at 18.7 µM. 0.13% of 350,000 active. AID 602363;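 active = replicate mean at a twofold rise or more, about +100% in these data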;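 also: firefly luciferase made from a UUG start codon reports start codon fidelity; reporter light over untreated wells divided by growth signal over untreated wells; some hits fall short of that in this replicate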
INS-1E GSIS act: GLuc luminescence reporter in INS-1E cells, primary screen for activators of glucose-dependent secretion of insulin | INS-1E GLuc reporter insulin secretion, 2-3 h | activation, % at 16.6 µM | 370,000 compounds, 0.61% hits | AID 743287;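 active = lowest replicate activation of at least 40%, so every replicate reaches that level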
RAD52 anneal inh: inhibitors of human RAD52 DNA annealing | inhibition, % at 18.7 µM | P43351 | 360,000 compounds, 0.46% hits | recombinant RAD52 DNA annealing, FRET fluorescence | AID 651710;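 active = every replicate showing at least 50% inhibition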
RAD54 branch: inhibitors of human RAD54 branch migration; Q92698; RAD54 Holliday junction branch migration, FAM/BHQ fluorescence; 360,000 compounds, 0.14% hits; inhibition, % at 10.4 µM; AID 602329;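 active = mean normalized replicate activity at least 40 and at least half of replicates scoring 40 or more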;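 note: inhibitors cause a drop in the FAM fluorescence signal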
Large screens that a line does not name were inactive.

CO[C@H]1CN(C)C(=O)c2cc(NC(=O)Nc3ccc(Cl)c(Cl)c3)ccc2OC[C@@H](C)NC[C@H]1C	RAD52 anneal inh 52 (no result: Casp6 inh, Yeast UUG start)
CCOc1ccc(C(C)NC(=O)c2ccccc2OCc2c(C)noc2C)cc1OCC (configuration not stated)	none
CC(C)NC(=O)Nc1ccc2c(c1)C(=O)N(C)[C@H]1CC[C@@H](CC(=O)NCc3ccc(F)cc3)O[C@@H]1CO2	none (no result: Yeast UUG start)
CCCC#Cc1cnc2c(c1)C(=O)N([C@H](C)CO)C[C@@H](C)[C@H](CN(C)Cc1cccnc1)O2	none
COc1ccc(C2N(c3ccccc3)C(=O)C2(F)F)cc1OC (configuration not stated)	INS-1E GSIS act 44
C/C=C1\COC(C(=O)NCc2ccccc2)(C(F)(F)F)C=C1C=C1CCCCC1 (configuration not stated)	INS-1E GSIS act 141
O=c1[nH]c(/C=C/c2ccc(OC(F)F)cc2)nc2c1cnn2-c1ccccc1	INS-1E GSIS act 85 (no result: PglD DTNB, Casp6 inh, Yeast UUG start, RAD52 anneal inh, RAD54 branch)
O=C(CCl)N=c1sccn1Cc1ccccc1Cl	INS-1E GSIS act 61
CC(C)Nc1nc(NC(N)=S)nc(NC(C)C)n1	INS-1E GSIS act 82 (no result: PglD DTNB, Casp6 inh, Yeast UUG start, RAD52 anneal inh, RAD54 branch)
CC(C)Nc1nc(NC(N)=S)nc(NC(C)(C)C)n1	INS-1E GSIS act 44 (no result: PglD DTNB, Yeast UUG start, RAD54 branch)
Cc1cc(C)nc(NC(N)=S)n1	none
CC1CC(C)CN(CCOCCSc2ccc(Cl)cc2)C1 (configuration not stated)	none (no result: PglD DTNB, Casp6 inh, Yeast UUG start, RAD54 branch)
Brc1cccc(-c2nnc(SCc3nc4ccccc4[nH]3)o2)c1	none (no result: Casp6 inh, INS-1E GSIS act, RAD52 anneal inh)
CCCC[n+]1ccn(-c2nc3ccccc3nc2[N-]S(=O)(=O)c2ccccc2)c1	none
CCCC[n+]1ccn(-c2nc3ccccc3nc2[N-]S(=O)(=O)c2cccs2)c1	RAD54 branch 94
COc1ccc(C(=O)COC(=O)C2CC3CCCC(C2)C3=O)cc1Br (configuration not stated)	INS-1E GSIS act 58
COc1cccc(C(=O)COC(=O)C2CC3CCCC(C2)C3=O)c1 (configuration not stated)	none
O=C(C[C@H]1C=C[C@H](NC(=O)NC2CCCC2)[C@H](CO)O1)NCc1ccc(F)cc1	none
O=C(O)c1cc(N2C(=O)C=CC2=O)cc(N2C(=O)C=CC2=O)c1	Casp6 inh 61
CCOc1ccccc1Nc1cc2n(c(=O)n1)CCc1cc(OC)c(OC)cc1-2	INS-1E GSIS act 76 (no result: PglD DTNB, Yeast UUG start, RAD54 branch)
COc1cc2c(cc1OC)-c1cc(NCc3ccccn3)nc(=O)n1CC2	INS-1E GSIS act 63 (no result: Casp6 inh, RAD52 anneal inh)
COc1cc2c(cc1OC)-c1cc(NC3CCCCC3)nc(=O)n1CC2	INS-1E GSIS act 72 (no result: Casp6 inh, RAD52 anneal inh)
CCOc1ccc(Nc2cc3n(c(=O)n2)CCc2cc(OC)c(OC)cc2-3)cc1	none
COc1cc2c(cc1OC)-c1cc(Nc3ccccc3C)nc(=O)n1CC2	INS-1E GSIS act 53
COc1cc2c(cc1OC)C(c1cc3cc(OC)c(OC)cc3[nH]c1=O)N(C(=O)C1CC1)CC2 (configuration not stated)	none (no result: Casp6 inh, RAD52 anneal inh)
Cc1cccc(NC(=O)c2ccc(OCc3c(C)noc3C)cc2)c1C	INS-1E GSIS act 137
CC(=O)Nc1ccc(S(=O)(=O)N(C)c2ccc(O)cc2)cc1	none (no result: Casp6 inh, INS-1E GSIS act, RAD52 anneal inh)
COc1ccc(CN(C)C[C@H]2OCCCC[C@@H](C)Oc3ccc(NC(=O)Nc4ccc(C(F)(F)F)cc4)cc3C(=O)N([C@@H](C)CO)C[C@@H]2C)cc1	RAD52 anneal inh 50
COc1ccc(CN(C)C[C@@H]2OCCCC[C@H](C)Oc3ccc(NC(=O)Nc4ccc(C(F)(F)F)cc4)cc3C(=O)N([C@H](C)CO)C[C@@H]2C)cc1	RAD52 anneal inh 53
COc1ccc(CN(C)C[C@H]2OCCCC[C@H](C)Oc3ccc(NC(=O)Nc4ccc(C(F)(F)F)cc4)cc3C(=O)N([C@H](C)CO)C[C@@H]2C)cc1	RAD52 anneal inh 53
COc1ccc(NC(=O)Nc2ccc3c(c2)C(=O)N([C@@H](C)CO)C[C@@H](C)[C@H](CN(C)Cc2ccc(C(F)(F)F)cc2)OCCCC[C@@H](C)O3)cc1	none
Cc1cccc(Sc2ccc([N+](=O)[O-])cc2[N+](=O)[O-])n1	none (no result: PglD DTNB, Yeast UUG start, INS-1E GSIS act, RAD54 branch)
COc1ccc(N(C)S(=O)(=O)c2cccc(C(=O)NCC(c3ccco3)N3CCCC3)c2)cc1 (configuration not stated)	none
COc1ccc(N(C)S(=O)(=O)c2cccc(C(=O)NCC(c3cccs3)N(C)C)c2)cc1 (configuration not stated)	Casp6 inh 40 (no result: PglD DTNB, Yeast UUG start, RAD54 branch)
